# Yeast mating assay 1: variants of the scFv Ab-14

Reference: Engelhart et al. 2022, doi:10.1038/s41597-022-01779-4. File: FLAb, binding data.

Antigen: PDVDLGDISGINAS, a 14-residue peptide of the SARS-CoV-2 spike HR2 region.

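Variants in AAYL50 differ from the parent at up to three CDR positions; double and triple changes were sampled at random. Affinity was read by AlphaSeq, a pooled yeast mating assay with surface-displayed partners. The frequency of each diploid, read from paired DNA barcodes, reflects how well the two displayed proteins bind. A regression on co-assayed BCL2-family reference pairs converts the normalised counts of each replicate to an apparent Kd. Each pool was mated in three replicate cultures.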

The variants keep the heavy chain, the linker and the frameworks of Ab-14 (scFv order VH, the linker GGGGSGGGGSGGGGS, VL).
VH: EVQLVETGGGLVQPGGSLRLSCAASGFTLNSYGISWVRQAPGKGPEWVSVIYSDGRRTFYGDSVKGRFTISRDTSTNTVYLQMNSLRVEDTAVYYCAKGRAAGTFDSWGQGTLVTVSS
VL: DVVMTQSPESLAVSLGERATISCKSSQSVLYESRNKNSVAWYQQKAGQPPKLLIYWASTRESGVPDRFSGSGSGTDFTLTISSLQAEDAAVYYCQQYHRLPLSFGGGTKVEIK

The whole VL of each variant is written out. All variants listed here change S38 of the VL, counted from its first residue. Kd is apparent (estimated from mating counts) and averaged on the log scale over replicates with a signal. Smaller is tighter. "nd" means that the variant was in the library but no mating with the target was seen in any replicate; the authors take this as a sign of poor binding, and no number exists. As a blank, each scFv also met three strains without target: over library AAYL50, 18% of these pairings were detected, typically at 15 µM and seldom below 970 nM.

The variant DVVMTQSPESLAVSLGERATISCKSSQSVLYESRNKNAVAWYQQKAGQPPKLLIYWASTHESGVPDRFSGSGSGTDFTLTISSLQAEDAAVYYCQQYHRIPLSFGGGTKVEIK showed 5.1 µM (3 of 3 replicates).
The variant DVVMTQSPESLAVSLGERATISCKSTQSVLYESRNKNNVAWYQQKAGQPPKLLIYWASTRESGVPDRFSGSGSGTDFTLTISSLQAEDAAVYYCQQYHRLPLSFGGGTKVEIK showed 3.0 nM (3 of 3 replicates).
The variant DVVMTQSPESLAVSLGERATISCMSSQSVLYESRNKNNVAWYQQKAGQPPKLLIYWAWTRESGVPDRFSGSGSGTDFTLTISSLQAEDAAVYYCQQYHRLPLSFGGGTKVEIK showed 1.3 µM (1 of 3 replicates).
The variant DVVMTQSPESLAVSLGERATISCKSSQSVLYESRNKNAEAWYQQKAGQPPKLLIYPASTRESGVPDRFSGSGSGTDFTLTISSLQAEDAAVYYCQQYHRLPLSFGGGTKVEIK showed 600 µM (1 of 3 replicates).
The variant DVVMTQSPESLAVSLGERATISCKSSQSVLYESRNKNGVAWYQQKAGQPPKLLIYWYSTRESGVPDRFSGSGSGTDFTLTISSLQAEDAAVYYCQQWHRLPLSFGGGTKVEIK showed 6.9 µM (1 of 3 replicates).
The variant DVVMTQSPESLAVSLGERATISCKSSQSVLYESRNKNTVAWYQQKAGQPPKLLIYWASTRESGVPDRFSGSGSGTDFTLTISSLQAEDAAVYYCQQYRRLWLSFGGGTKVEIK showed 33 µM (1 of 3 replicates).
The variant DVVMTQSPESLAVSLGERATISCKSSQSVLYESRNKNIVAWYQQKAGQPPKLLIYWASTRESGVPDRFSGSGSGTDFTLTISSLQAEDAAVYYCQQYHRLPLSFGGGTKVEIK showed nd (0 of 3 replicates).
The variant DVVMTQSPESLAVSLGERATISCKSSQWVLYESRNMNGVAWYQQKAGQPPKLLIYWASTRESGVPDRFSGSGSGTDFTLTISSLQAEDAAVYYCQQYHRLPLSFGGGTKVEIK showed 970 nM (2 of 3 replicates).
The variant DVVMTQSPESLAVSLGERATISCKSSQSVLYESRNKNVVAWYQQKAGQPPKLLIYWISTSESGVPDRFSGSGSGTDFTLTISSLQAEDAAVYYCQQYHRLPLSFGGGTKVEIK showed 82 µM (3 of 3 replicates).
The variant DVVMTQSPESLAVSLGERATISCKSSQSVQYESRNKNAVAWYQQKAGQPPKLLIYWASTRESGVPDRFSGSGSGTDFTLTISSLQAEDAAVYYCQQYHRLYLSFGGGTKVEIK showed 24 µM (1 of 3 replicates).
The variant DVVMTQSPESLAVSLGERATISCKSSQSVIYESRNKNGVAWYQQKAGQPPKLLIYWASTRESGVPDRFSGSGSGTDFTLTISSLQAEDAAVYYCQQYHRLPLSFGGGTKVEIK showed 410 nM (3 of 3 replicates).
The variant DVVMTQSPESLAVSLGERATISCKSSQSVLYESRNKNLVAWYQQKAGQPPKLLIYWASTRESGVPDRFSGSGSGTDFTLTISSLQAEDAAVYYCQQVHRLPLSFGGGTKVEIK showed nd (0 of 3 replicates).
The variant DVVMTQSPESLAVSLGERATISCKSSQSVLYFSRNKNMVAWYQQKAGQPPKLLIYWASTRESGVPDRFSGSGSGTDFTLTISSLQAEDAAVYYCQQFHRLPLSFGGGTKVEIK showed nd (0 of 3 replicates).
The variant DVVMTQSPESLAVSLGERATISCKSSQSGLYESRNKNWVAWYQQKAGQPPKLLIYWASTREGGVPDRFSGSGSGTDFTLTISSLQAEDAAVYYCQQYHRLPLSFGGGTKVEIK showed nd (0 of 3 replicates).
The variant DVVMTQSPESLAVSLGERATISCKSSFSVLYESRTKNVVAWYQQKAGQPPKLLIYWASTRESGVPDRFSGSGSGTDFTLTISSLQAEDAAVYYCQQYHRLPLSFGGGTKVEIK showed nd (0 of 3 replicates).
The variant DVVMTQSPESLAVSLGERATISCKSSQSVLYESRNKNDVAWYQQKAGQPPKLLIYWASTREGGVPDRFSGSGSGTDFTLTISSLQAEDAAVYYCQQHHRLPLSFGGGTKVEIK showed 1.8 µM (3 of 3 replicates).

Top 2 of the variants detected in all replicates, tightest first:

VL,Kd (apparent),replicates with signal
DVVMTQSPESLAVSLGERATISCKSTQSVLYESRNKNNVAWYQQKAGQPPKLLIYWASTRESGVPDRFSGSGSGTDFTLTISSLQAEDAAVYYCQQYHRLPLSFGGGTKVEIK,3.0 nM,3/3
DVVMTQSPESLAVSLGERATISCKSSQSVIYESRNKNGVAWYQQKAGQPPKLLIYWASTRESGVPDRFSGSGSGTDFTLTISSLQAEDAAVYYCQQYHRLPLSFGGGTKVEIK,410 nM,3/3

For reference, the parent read 4.4 nM as the reference entry and 48 nM as a member of this library.